Data on two compounds can be found in patent US20220017487A1, “DEUTERATED COMPOUNDS AND USES THEREOF” (X4 Pharmaceuticals, Inc., priority 2020, published 2022).

The chains behind the UniProt entries cited, without tags or fusion partners.
UniProt P61073, whole entry: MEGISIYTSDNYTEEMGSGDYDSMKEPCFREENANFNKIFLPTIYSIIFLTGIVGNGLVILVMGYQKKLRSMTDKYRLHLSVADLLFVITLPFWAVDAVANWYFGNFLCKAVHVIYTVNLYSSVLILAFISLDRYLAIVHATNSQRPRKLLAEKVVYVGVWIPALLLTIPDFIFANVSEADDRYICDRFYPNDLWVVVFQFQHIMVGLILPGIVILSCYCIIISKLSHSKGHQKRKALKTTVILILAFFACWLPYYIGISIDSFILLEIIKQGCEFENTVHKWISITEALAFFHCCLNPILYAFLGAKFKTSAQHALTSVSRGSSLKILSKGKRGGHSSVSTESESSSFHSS

Where two headings read alike, the source gives them in different places.

In assay [1] the target is CXCR4 (CXCR-4 transfected U87 cell line, U87.CXCR4) (Homo sapiens, UniProt P61073). Kind of assay: Intracellular CXCL-12-induced calcium mobilization assay (FLIPR), inhibition of Ca2+ signalling. The following applies: U87.CD4+.CXCR4+ cells, CXCL-12 25-50 ng/mL. Type of assay: cell-based.
Assay [2] deals with CXCR4 (Jurkat cells expressing CXCR4) (Homo sapiens, UniProt P61073). Kind of assay: Chemokine (CXCL12-AF647) binding inhibition assay, flow cytometry. The conditions noted are these: CXCL12-AF647 25 ng/mL.
[3] abbreviates: average of runs 1-4, read-out: Inhibition of Ca2+ Signalling, AVERAGE IC50.
Where [4] appears, read: experiment 1, read-out: Inhibition of Ca2+ Signalling, IC50, run 1.
The mark [5] stands for this setting: experiment 2, read-out: Inhibition of Ca2+ Signalling, IC50, run 2.
The mark [6] stands for this setting: experiment 3, read-out: Inhibition of Ca2+ Signalling, IC50, run 3.
[7] abbreviates: experiment 4, read-out: Inhibition of Ca2+ Signalling, IC50, run 4.
Setting [8] is: average of the two determinations, read-out: Inhibition of CXCL12 Binding, AVERAGE IC50.
[9] abbreviates: first determination, read-out: Inhibition of CXCL12 Binding, IC50.
The mark [10] stands for this setting: second determination, read-out: Inhibition of CXCL12 Binding, IC50.

Turning to `O=C(O)C(F)(F)F.[2H]c1c([2H])c([2H])c2[nH]c(CN(CCCCN)[C@H]3CCCc4cccnc43)nc2c1[2H]` [Compound I-36], the IC50 (as a rule, the midpoint of a concentration-inhibition curve) came to 21.3 nM in assay [1] (setting [3]); 27.2 nM in assay [1] (setting [4]); 14.3 nM in assay [1] (setting [5]); 14.9 nM in assay [1] (setting [6]); 28.9 nM in assay [1] (setting [7]); 10.3 nM in assay [2] (setting [8]). The values for the concentration for half-maximal inhibition (IC50) in assay [2] (setting [9]) and in assay [2] (setting [10]) were 9.5 nM and 11.1 nM, respectively.
With `NCCCCN(Cc1nc2ccccc2[nH]1)[C@H]1CCCc2cccnc21` [Compound X4P-001, mavorixafor], the IC50 in assay [1] (setting [3]) came to 13.1 nM; in assay [1] (setting [4]) it was 19.9 nM; in assay [1] (setting [5]), 11 nM; in assay [1] (setting [6]), 7.87 nM; in assay [1] (setting [7]), 13.9 nM; in assay [2] (setting [8]), 3.1 nM. The IC50 in assay [2] (setting [9]) was found to be 3.2 nM; in assay [2] (setting [10]), 3 nM.
